IC50 data for one compound are collected here from US5026699A, “Use of 5,11-dihydro-6H-pyrido[2,3-b][1,4]-benzodiazepin-6-ones substituted in the 11-position for treating bradycardia and bradyarrhythmia in human and veterinary medicine” (Dr. Karl Thomae GmbH, priority 1988, dated 1991).

The target in this assay is muscarinic receptors, cerebral cortex. Description: Receptor binding test in vitro, 3H-NMS displacement, cerebral cortex homogenate. The settings on record: rat cerebral cortex homogenate 1:3000; 0.3 nanomolar 3H-NMS; 30° C., 45 minutes; read-out: Receptor Binding Tests IC50, Cortex.

As to `CCN(CC)CC1CCCCN1CC(=O)N1c2ccccc2C(=O)Nc2cccnc21` (stereo not shown) [C, 11-[[2-[(diethylamino)methyl]-1-piperidinyl]acetyl]-5,11-dihydro-6H-pyrido[2,3-b][1,4]benzodiazepin-6-one, reference compound], the IC50 was determined as 1200 nM.

A word on the IC50: it is the concentration needed to halve the response being measured.
